From ChEMBL document CHEMBL1134685, “Antitumor Agents. 211. Fluorinated 2-phenyl-4-quinolone derivatives as antimitotic antitumor agents” (J Med Chem, 2001) come the findings set out here.

The chains behind the UniProt entries cited, without tags or fusion partners.
UniProt P02550, whole entry, looked up: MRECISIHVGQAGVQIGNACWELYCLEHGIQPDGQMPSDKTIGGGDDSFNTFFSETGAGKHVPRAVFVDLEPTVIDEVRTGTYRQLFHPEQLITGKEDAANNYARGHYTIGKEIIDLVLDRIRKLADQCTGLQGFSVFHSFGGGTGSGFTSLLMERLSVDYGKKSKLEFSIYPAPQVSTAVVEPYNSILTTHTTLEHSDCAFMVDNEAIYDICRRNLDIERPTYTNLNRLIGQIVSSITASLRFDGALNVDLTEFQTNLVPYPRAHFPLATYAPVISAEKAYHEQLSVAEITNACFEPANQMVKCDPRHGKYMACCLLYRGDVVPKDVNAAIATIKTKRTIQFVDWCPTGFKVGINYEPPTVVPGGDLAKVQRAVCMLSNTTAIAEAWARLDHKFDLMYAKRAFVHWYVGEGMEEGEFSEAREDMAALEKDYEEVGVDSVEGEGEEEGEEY

This assay addresses Tubulin alpha chain (Sus scrofa, UniProt P02550). In words: Inhibition of tubulin polymerization. (ITP).

Usually IC50 stands for the concentration at which inhibition is half-maximal. For the compound `Fc1ccccc1-c1cc(S)c2cc3c(cc2n1)OCO3`, the IC50 amounted to 24 µM.
